Among the data in patent US4190675A, “Method for the preparation of verbenone, myrtenal and pinocarveol and their therapeutical use” (priority 1976, dated 1980) are LD50 values, retold here.

A short description of the data set: in vivo. The settings on record: mouse, iv.

The compound `CC1(C)C2CC=C(C=O)C1C2` (stereo not shown) [Myrtenal, myrtenal] registered an LD50 of 170 mg/kg.

As usually defined, the LD50 is the dose expected to kill half of the subjects tested. Low values mean greater toxicity, high ones lower toxicity.
